# Earlier results, collected in patent publication US20160184401A1, “NON-AGGLOMERATING BIOCONJUGATES OF AMYLIN AND AMYLIN-MIMETIC COMPOUNDS, COMPOSITIONS COMPRISING THE SAME, AND MAKING AND USE THEREOF” (UNIVERSIDADE FEDERAL DO RIO DE JANEIRO, priority 2013, published 2016).
# Details: human, in vivo; cited from earlier work
smiles,measurement,value
CC[C@H](C)[C@H](NC(=O)[C@@H]1CCCN1C(=O)CNC(=O)[C@H](Cc1ccccc1)NC(=O)[C@H](CC(N)=O)NC(=O)[C@H](CC(N)=O)NC(=O)[C@H](CO)NC(=O)[C@H](CO)NC(=O)[C@H](Cc1c[nH]cn1)NC(=O)[C@@H](NC(=O)[C@H](CC(C)C)NC(=O)[C@H](Cc1ccccc1)NC(=O)[C@H](CC(N)=O)NC(=O)[C@H](C)NC(=O)[C@H](CC(C)C)NC(=O)[C@H](CCCNC(=N)N)NC(=O)[C@H](CCC(N)=O)NC(=O)[C@@H](NC(=O)[C@H](C)NC(=O)[C@@H]1CSSC[C@H](NC(=O)[C@@H](N)CCCCN)C(=O)N[C@@H](CC(N)=O)C(=O)N[C@@H]([C@@H](C)O)C(=O)N[C@@H](C)C(=O)N[C@@H]([C@@H](C)O)C(=O)N1)[C@@H](C)O)C(C)C)C(=O)N[C@@H](CC(C)C)C(=O)N1CCC[C@H]1C(=O)N1CCC[C@H]1C(=O)N[C@H](C(=O)N[C@@H](CC(N)=O)C(=O)N[C@H](C(=O)NCC(=O)N[C@@H](CO)C(=O)N[C@@H](CC(N)=O)C(=O)N[C@H](C(=O)N[C@@H](Cc1ccc(O)cc1)C(N)=O)[C@@H](C)O)C(C)C)[C@@H](C)O [pramlintide],plasma half-life,10 to 15 min
